The target of assay [1] is T1, DDB1- and CUL4-associated factor 1 (Homo sapiens, UniProt Q9Y4B6). The assay is described as follows: Binding affinity to Avi-tagged DCAF1 (1073 to 1399 residues) (unknown origin) expressed in baculovirus infected in Sf9 insect cells by SPR analysis. (In general: SPR reads the build-up and loss of mass on a sensor chip optically.)
The target in assay [2] is T1, DDB1- and CUL4-associated factor 1. The experiment in a line: Binding affinity to Avi-tagged DCAF1 (1039 to 1401 residues) (unknown origin) expressed in baculovirus infected in Sf9 insect cells by NMR analysis.

Sequences of proteins named here, by UniProt entry; tags and fusion partners are left off. A change or cut given only in a name is not applied to a line headed by its entry.
UniProt Q9Y4B6: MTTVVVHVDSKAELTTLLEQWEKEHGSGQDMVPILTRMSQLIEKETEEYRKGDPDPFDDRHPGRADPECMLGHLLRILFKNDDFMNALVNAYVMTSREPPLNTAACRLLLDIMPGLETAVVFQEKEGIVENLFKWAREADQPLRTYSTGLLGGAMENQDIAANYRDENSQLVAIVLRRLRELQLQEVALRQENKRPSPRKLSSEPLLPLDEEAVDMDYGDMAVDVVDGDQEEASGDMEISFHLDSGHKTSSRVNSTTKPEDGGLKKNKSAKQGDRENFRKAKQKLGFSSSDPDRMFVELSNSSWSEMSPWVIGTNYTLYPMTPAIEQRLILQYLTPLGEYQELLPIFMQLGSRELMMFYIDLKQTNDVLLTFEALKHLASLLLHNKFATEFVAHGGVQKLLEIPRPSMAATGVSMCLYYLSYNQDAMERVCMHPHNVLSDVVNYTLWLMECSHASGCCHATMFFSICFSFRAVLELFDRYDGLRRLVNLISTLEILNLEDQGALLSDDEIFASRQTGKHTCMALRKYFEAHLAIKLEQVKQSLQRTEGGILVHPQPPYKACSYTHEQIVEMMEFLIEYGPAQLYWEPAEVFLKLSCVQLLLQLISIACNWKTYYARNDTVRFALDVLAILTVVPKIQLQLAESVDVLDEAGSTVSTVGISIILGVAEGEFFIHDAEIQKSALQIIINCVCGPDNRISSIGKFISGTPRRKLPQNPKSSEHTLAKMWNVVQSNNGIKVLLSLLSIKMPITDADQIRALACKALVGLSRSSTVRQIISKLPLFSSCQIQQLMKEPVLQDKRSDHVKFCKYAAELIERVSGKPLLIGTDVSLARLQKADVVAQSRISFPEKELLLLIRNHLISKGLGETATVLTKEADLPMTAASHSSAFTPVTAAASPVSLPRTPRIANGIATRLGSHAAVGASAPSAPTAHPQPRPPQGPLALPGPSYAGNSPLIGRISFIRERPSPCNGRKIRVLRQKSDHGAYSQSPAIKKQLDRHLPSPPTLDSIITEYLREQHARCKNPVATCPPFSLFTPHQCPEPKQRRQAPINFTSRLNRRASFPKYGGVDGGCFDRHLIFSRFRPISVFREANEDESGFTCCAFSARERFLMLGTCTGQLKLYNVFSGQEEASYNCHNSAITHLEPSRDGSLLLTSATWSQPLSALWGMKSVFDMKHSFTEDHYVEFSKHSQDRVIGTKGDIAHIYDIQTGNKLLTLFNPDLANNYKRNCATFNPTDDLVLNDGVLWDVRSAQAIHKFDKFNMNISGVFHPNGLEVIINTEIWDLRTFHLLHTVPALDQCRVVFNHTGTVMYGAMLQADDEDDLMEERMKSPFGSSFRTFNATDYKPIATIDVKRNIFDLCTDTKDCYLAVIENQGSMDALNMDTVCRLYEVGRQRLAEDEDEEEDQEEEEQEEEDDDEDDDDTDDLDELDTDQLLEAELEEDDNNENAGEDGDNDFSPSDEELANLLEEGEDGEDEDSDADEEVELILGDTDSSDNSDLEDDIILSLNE

Some results are limits rather than exact numbers.

As for `Fc1ccccc1C1=Cc2ccccc2C2=NCCN12` [5-(2-Fluoro-phenyl)-2,3-dihydro-imidazo[2,1-a]isoquinoline], the Kd (in general, a measure of binding affinity in units of concentration) in assay [1] was greater than 100 µM; in assay [2] it was greater than 500 µM.

The values above are taken from BindingDB's records for doi:10.1021/acsmedchemlett.3c00104 (Novartis Institutes for Biomedical Research, 2023).
